Laboratory results as given in US7893074B2, “2, 4-pyrimidinediamines useful in the treatment of neoplastic diseases, inflammatory and immune system disorders” (Novartis AG, priority 2003, dated 2011).

Protein sequences, listed by entry. Tags and fused reporters are not part of them. Residues count along the entry.
UniProt Q05397, 384-706 limits assumed: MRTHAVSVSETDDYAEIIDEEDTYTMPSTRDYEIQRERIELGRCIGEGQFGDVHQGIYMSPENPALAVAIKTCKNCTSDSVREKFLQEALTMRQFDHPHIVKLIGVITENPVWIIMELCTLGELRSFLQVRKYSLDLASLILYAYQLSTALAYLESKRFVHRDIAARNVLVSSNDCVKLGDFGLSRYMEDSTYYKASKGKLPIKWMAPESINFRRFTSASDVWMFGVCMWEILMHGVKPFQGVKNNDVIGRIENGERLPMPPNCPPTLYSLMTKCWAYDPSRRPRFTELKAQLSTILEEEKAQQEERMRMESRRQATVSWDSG
UniProt P08069, 31-1367 limits assumed: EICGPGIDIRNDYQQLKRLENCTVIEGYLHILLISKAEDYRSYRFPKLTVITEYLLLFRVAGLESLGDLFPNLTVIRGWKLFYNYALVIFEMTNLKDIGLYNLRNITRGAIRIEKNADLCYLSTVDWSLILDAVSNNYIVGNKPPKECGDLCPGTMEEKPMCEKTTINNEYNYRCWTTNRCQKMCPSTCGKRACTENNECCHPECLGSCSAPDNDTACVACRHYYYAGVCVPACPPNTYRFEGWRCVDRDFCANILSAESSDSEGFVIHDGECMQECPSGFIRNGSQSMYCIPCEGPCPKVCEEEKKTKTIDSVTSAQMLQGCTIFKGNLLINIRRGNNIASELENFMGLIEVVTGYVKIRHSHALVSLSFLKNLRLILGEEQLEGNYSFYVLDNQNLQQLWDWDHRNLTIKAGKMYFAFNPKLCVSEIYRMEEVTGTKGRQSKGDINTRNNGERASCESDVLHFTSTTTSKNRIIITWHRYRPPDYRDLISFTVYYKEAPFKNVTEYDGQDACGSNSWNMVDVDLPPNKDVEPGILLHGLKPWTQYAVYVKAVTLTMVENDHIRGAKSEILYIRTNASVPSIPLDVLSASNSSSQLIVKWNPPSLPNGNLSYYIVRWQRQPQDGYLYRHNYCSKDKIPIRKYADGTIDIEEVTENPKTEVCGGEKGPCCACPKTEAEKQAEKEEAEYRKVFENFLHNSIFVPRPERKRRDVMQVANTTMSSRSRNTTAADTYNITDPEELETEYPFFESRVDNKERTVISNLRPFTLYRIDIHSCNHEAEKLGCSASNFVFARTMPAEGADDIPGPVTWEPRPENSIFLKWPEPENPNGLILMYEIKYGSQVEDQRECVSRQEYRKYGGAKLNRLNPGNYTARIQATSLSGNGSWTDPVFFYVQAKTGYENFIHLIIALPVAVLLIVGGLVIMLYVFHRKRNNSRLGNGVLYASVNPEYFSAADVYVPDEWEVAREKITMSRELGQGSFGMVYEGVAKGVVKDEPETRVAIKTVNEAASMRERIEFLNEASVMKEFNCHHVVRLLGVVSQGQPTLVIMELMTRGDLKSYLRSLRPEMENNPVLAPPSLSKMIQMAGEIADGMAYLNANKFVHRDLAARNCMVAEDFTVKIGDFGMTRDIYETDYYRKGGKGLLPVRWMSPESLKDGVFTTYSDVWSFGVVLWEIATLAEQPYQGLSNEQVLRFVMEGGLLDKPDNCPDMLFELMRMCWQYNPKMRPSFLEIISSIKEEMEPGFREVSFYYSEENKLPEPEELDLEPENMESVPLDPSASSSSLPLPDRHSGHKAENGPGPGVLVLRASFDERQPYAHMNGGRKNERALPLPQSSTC
UniProt P34152, 2-1052 limits assumed: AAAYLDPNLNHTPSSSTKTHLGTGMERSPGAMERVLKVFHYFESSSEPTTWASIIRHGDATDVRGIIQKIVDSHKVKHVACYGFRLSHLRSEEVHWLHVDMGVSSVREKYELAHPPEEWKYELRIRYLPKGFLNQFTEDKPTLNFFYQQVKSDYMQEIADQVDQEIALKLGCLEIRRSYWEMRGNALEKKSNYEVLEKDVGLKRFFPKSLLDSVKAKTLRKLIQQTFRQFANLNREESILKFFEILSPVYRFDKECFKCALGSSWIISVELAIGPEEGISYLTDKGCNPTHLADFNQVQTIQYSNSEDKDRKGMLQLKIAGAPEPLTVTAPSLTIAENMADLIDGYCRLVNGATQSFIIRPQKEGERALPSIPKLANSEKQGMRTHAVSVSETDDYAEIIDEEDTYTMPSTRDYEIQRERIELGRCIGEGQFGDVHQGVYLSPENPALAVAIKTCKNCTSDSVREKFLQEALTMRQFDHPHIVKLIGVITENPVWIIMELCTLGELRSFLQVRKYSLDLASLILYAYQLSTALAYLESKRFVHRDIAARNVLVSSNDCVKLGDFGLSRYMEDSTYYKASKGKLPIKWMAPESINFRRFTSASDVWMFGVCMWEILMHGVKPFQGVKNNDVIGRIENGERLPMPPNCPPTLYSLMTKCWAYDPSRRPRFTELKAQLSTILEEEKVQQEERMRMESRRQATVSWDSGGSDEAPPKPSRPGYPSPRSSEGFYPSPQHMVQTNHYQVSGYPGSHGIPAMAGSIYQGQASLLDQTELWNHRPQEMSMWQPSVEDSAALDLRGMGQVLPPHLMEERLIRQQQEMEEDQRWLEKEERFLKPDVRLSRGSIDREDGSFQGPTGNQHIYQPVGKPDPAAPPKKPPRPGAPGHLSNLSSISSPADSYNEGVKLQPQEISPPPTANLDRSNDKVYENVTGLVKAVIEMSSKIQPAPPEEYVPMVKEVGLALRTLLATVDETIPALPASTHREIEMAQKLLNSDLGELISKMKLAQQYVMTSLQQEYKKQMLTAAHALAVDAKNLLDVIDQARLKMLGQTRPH

Legend:
[1] = test system: Mouse mammary carcinoma 4T1 cells; assay: Anchorage-independent tumor cell growth assay; type: cell-based; conditions: read-out: Growth IC50
[2] = molecular target: Focal Adhesion Kinase (FAK) (Homo sapiens, UniProt Q05397); assay: FAK assay system (Focal Adhesion Kinase inhibition); type: biochemical; conditions: read-out: FAK IC50
T Cell = T Cell Migration; type: cell-based; conditions: read-out: T Cell Migration IC50
IGF-IR = IGF-IR (Homo sapiens, UniProt P08069); assay: Cellular Capture ELISA of IGF-I induced autophosphorylation of the IGF-IR; type: cell-based; conditions: read-out: IGF-1R IC50
FAK = FAK (Mus musculus, UniProt P34152); assay: Phos IC50 (phosphorylation); type: cell-based; conditions: read-out: Phos IC50

Row | pIC50 [1] | pIC50 [2] | pIC50 (T Cell) | pIC50 (IGF-IR) | pIC50 (FAK) | Compound
1 | 7.15 | 8.72 | 7.05 |  |  | CCCS(=O)(=O)c1ccccc1Nc1nc(Nc2cc(N3CCC(N4CCCCC4)CC3)ccc2OC)ncc1Cl
2 |  | 8.15 | 6.60 |  |  | CCCS(=O)(=O)c1ccccc1Nc1nc(Nc2cc(N3CCN(C)CC3)ccc2OC)ncc1Cl
3 |  | 8.12 |  | 6.11 |  | CNC(=O)c1ccccc1Nc1nc(Nc2ccc(N3CCCC(C(N)=O)C3)cc2OC)ncc1Cl (stereo not shown)

Continued, molecule first:

Row | Compound | pIC50 [1] | pIC50 [2] | pIC50 (T Cell) | pIC50 (IGF-IR) | pIC50 (FAK)
4 | CCCS(=O)(=O)c1ccccc1Nc1nc(Nc2cc(N3CCC(N4CCN(C)CC4)CC3)ccc2OC)ncc1Cl | 7.30 | 8.80 |  |  | 
5 | CCCS(=O)(=O)c1ccccc1Nc1nc(Nc2cc(N3CCC(N4CCOCC4)CC3)ccc2OC)ncc1Cl |  | 8.40 |  |  | 
6 | CCCS(=O)(=O)c1ccccc1Nc1nc(Nc2cc(N3CCC(NC)C3)ccc2OC)ncc1Cl (stereo not shown) |  | > 9.00 |  |  | 
7 | CCCS(=O)(=O)c1ccccc1Nc1nc(Nc2cc(N3CCC(O)CC3)ccc2OC)ncc1Cl | 7.30 | 8.35 |  |  | 
8 | CCN(CCO)c1ccc(Nc2ncc(Br)c(Nc3ccccc3S(=O)(=O)NC)n2)c(C)c1 |  | 7.54 |  | 6.39 | 6.70

pIC50: −log10 of the molar value.
